Earlier results on one compound are cited in patent publication US6303618A, “Cyclin dependent kinase inhibiting purine derivatives” (priority 1997, dated 2001).

This series deals with CDK5. The note with it: in words; cited from earlier work.

Consider `Cn1cnc2c(NCc3ccccc3)nc(NCCO)nc21` [Olomoucine, 2-(2-hydroxyethylamino)-6-benzylamino-9-methyl-purine], for which the “inhibition of CDK5” value is “inhibit activity”.
